Results as given in ChEMBL document CHEMBL4376874, “Discovery of Potent and Selective Epidermal Growth Factor Receptor (EGFR) Bifunctional Small-Molecule Degraders” (J Med Chem, 2020).

Sequences of proteins named here, by UniProt entry; tags and fusion partners are left off.
von Hippel-Lindau disease tumor suppressor/Epidermal growth factor receptor (Homo sapiens), P00533+P40337, UniProt P40337, whole entry, looked up, stated change not applied: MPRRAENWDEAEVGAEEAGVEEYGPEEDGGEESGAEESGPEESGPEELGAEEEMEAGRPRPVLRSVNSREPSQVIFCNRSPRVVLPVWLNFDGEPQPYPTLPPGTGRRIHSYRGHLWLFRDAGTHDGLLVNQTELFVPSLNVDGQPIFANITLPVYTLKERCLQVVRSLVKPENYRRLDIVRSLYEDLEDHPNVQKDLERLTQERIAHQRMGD

Columns and labels:
Assay type in all cases: cell-based
[1] = tested on: von Hippel-Lindau disease tumor suppressor/Epidermal growth factor receptor (Homo sapiens), P00533+P40337 [L858R]; assay: Protac activity at VHL/EGFR L858R mutant in human H3255 cells assessed as reduction in AKT phosphorylation up to 10 uM treated 8 hrs post serum starvation measured after 16 hrs by Western blot analysis
Procedure, shortened: (§1)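 Cultured to 80% confluence in RPMI/1640 with 20% FBS at 37 °C and 5% CO2, then switched to serum-free medium for 8 h. Degraders were added over a concentration range up to 10 μM for 16 h, with gefitinib at 1 μM as reference. Lysates in Laemmli buffer were immunoblotted for EGFR, p-EGFR and p-AKT. DC50 came from band quantification by nonlinear regression (variable slope).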

[2] = tested on: von Hippel-Lindau disease tumor suppressor/Epidermal growth factor receptor (Homo sapiens), P00533+P40337 [UNDEFINED MUTATION]; assay: Protac activity at VHL/EGFR exon 19 deletion mutant in human HCC827 cells assessed as induction of EGFR degradation at >=50 nM treated 8 hrs post serum starvation measured after 16 hrs by Western blot analysis relative to control
[3] = tested on: von Hippel-Lindau disease tumor suppressor/Epidermal growth factor receptor (Homo sapiens), P00533+P40337 [L858R]; assay: Protac activity at VHL/EGFR L858R mutant in human H3255 cells assessed as reduction in EGFR autophosphorylation up to 10 uM treated 8 hrs post serum starvation measured after 16 hrs by Western blot analysis; procedure, shortened: as §1
[4] = tested on: von Hippel-Lindau disease tumor suppressor/Epidermal growth factor receptor (Homo sapiens), P00533+P40337 [UNDEFINED MUTATION]; assay: Protac activity at VHL/EGFR exon 19 deletion mutant in human HCC827 cells assessed as reduction in AKT phosphorylation up to 10 uM treated 8 hrs post serum starvation measured after 16 hrs by Western blot analysis; procedure, shortened: as §1
[5] = tested on: von Hippel-Lindau disease tumor suppressor/Epidermal growth factor receptor (Homo sapiens), P00533+P40337 [UNDEFINED MUTATION]; assay: Protac activity at VHL/EGFR exon 19 deletion mutant in human HCC827 cells assessed as reduction in EGFR autophosphorylation up to 10 uM treated 8 hrs post serum starvation measured after 16 hrs by Western blot analysis; procedure, shortened: as §1
[6] = tested on: Epidermal growth factor receptor (Homo sapiens), P00533 [L858R]; assay: Induction of EGFR L858R degradation in human H3255 cells assessed as reduction in ATK phosphorylation up to 100 nM treated 8 hrs post serum starvation measured after 16 hrs by Western blot analysis
[7] = tested on: Epidermal growth factor receptor (Homo sapiens), P00533 [L858R]; assay: Induction of EGFR L858R degradation in human H3255 cells up to 100 nM treated 8 hrs post serum starvation measured after 16 hrs by Western blot analysis
[8] = tested on: Epidermal growth factor receptor (Homo sapiens), P00533 [L858R]; assay: Induction of EGFR L858R degradation in human H3255 cells assessed as reduction in EGFR autophosphorylation up to 100 nM treated 8 hrs post serum starvation measured after 16 hrs by Western blot analysis
[9] = tested on: Epidermal growth factor receptor (Homo sapiens), P00533 [UNDEFINED MUTATION]; assay: Induction of EGFR exon 19 deletion mutant degradation in human HCC827 cells up to 100 nM treated 8 hrs post serum starvation measured after 16 hrs by Western blot analysis
[10] = tested on: Epidermal growth factor receptor (Homo sapiens), P00533 [UNDEFINED MUTATION]; assay: Induction of EGFR exon 19 deletion mutant degradation in human HCC827 cells assessed as reduction in AKT phosphorylation up to 100 nM treated 8 hrs post serum starvation measured after 16 hrs by Western blot analysis
[11] = tested on: Epidermal growth factor receptor (Homo sapiens), P00533 [UNDEFINED MUTATION]; assay: Induction of EGFR exon 19 deletion mutant degradation in human HCC827 cells assessed as reduction in EGFR autophosphorylation up to 100 nM treated 8 hrs post serum starvation measured after 16 hrs by Western blot analysis

SMILES | Activity [1] | %max [2] [%] | Activity [3] | Activity [4] | Activity [5] | Activity [6] | Activity [7] | Activity [8] | Activity [9] | Activity [10] | Activity [11]
COc1cc2ncnc(Nc3ccc(F)c(Cl)c3)c2cc1OCCCN1CCN(C(=O)CCCCCCCCCC(=O)N[C@H](C(=O)N2C[C@H](O)C[C@H]2C(=O)NCc2ccc(-c3scnc3C)cc2)C(C)(C)C)CC1 | Active | > 95 | Active | Active | Active | – | – | – | – | – | –
COc1cc2ncnc(Nc3ccc(F)c(Cl)c3)c2cc1OCCCN1CCN(C(=O)CCCCCCCCCC(=O)N[C@H](C(=O)N2C[C@@H](O)C[C@@H]2C(=O)NCc2ccc(-c3scnc3C)cc2)C(C)(C)C)CC1 | – | – | – | – | – | Active | inactive | Active | inactive | Active | Active

Activity calls are given as the source filed them. The calls are words filed in the database; no cut-off is given here.
